Laboratory results: article PMC11435890, “Enzymatic Hydrolysis of Resorcylic Acid Lactones by an Aeromicrobium sp” (Toxins, 2024)

The chains behind the UniProt entries cited, without tags or fusion partners.
UniProt P02829, whole entry: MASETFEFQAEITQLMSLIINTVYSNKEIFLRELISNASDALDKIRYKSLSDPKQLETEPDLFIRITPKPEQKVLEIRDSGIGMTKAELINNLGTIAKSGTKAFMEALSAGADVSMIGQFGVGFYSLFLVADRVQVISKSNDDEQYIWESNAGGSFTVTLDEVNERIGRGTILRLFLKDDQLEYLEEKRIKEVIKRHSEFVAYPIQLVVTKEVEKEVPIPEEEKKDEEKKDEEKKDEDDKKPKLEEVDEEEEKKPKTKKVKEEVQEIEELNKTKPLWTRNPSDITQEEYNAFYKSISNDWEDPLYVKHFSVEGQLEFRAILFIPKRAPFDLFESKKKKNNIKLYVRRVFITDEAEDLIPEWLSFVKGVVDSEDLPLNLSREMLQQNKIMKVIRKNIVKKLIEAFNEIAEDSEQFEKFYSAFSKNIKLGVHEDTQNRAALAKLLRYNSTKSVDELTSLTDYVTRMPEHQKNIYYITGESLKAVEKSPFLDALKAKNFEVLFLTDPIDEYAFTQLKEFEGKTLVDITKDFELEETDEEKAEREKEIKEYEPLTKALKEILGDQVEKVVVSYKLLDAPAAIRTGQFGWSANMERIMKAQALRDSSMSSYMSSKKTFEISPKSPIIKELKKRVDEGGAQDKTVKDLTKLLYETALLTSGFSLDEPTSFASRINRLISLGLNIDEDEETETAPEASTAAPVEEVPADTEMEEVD

Biological target: T1, ScHsp82 (ScHSP82) (Saccharomyces cerevisiae, UniProt P02829)
T1 construct: gene HSP82; Ni-NTA and gel permeation
Assay: malachite green ATPase inhibition assay
Format: biochemical

C[C@@H]1C[C@H]2O[C@@H]2/C=C\C=C\C(=O)Cc2c(Cl)c(O)cc(O)c2C(=O)O1 [III, RAD]
% decrease in ATPase activity at 50 μM: 68%
